Molecular target: Dual specificity mitogen-activated protein kinase kinase 1 (Homo sapiens, UniProt Q02750)

Amino acid sequences for entries named in this document (tags omitted).
UniProt Q02750, whole entry, looked up: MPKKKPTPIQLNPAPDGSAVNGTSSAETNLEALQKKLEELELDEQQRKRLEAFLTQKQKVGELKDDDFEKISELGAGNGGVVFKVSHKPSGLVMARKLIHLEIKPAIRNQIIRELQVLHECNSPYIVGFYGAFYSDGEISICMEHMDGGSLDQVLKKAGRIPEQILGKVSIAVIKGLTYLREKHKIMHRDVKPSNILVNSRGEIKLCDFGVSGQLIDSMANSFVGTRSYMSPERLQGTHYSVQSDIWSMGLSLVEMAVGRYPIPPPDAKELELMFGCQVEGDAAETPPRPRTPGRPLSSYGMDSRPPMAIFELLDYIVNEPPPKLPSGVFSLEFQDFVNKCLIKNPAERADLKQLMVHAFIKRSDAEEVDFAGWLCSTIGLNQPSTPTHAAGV

Q: With `N#C/C(=C(/N)Sc1ccccc1N)c1cccc(C(O)c2ccc(-c3nn[nH]n3)cc2)c1` (stereo unspecified) as the molecule, how does the IC50 read?
A: The IC50 was 35 nM.
